From patent US7105551B2, “Thiazole derivatives for treating PPAR related disorders” (SmithKline Beecham Corporation, priority 2000, dated 2006)

Protein sequences, listed by entry. Tags and fused reporters are not part of them. Residues count along the entry.
UniProt P37231, 238-503 limits assumed: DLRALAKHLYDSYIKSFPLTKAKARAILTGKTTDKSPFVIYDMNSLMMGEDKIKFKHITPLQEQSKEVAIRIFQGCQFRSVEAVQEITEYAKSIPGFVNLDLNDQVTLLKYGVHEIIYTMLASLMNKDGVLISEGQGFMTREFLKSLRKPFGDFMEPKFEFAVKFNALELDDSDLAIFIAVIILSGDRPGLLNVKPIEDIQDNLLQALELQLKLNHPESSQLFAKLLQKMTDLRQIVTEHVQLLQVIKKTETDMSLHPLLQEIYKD

Legend:
Format in all cases: cell-based
hPPAR δ = molecular target: T1, hPPAR δ (Homo sapiens, UniProt Q03181); assay: Transient transfection (transactivation) assay in CV-1 cells, hPPAR delta
T1 construct: expressed in transfected cells; host or cells: CV-1 cells
T1 sequence (Q03181 211-439 limits assumed): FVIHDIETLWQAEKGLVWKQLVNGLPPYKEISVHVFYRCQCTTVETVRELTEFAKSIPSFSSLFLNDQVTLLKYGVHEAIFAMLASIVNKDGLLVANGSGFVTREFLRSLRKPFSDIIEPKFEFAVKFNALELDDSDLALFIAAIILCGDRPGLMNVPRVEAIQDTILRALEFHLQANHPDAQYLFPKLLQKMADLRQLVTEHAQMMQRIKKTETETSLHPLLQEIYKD
Source text: (§1) Compounds were screened for functional potency in transient transfection assays in CV-1 cells for their ability to activate the PPAR subtypes (transactivation assay). A previously established chimeric receptor system was utilized to allow comparison of the relative transcriptional activity of the receptor subtypes on the same target gene and to prevent endogenous receptor activation from complicating the interpretation of results. […] The ligand binding domains for murine and human PPAR alpha, PPAR gamma, and PPAR delta were each fused to the yeast transcription factor GAL4 DNA binding domain. CV-1 cells were transiently transfected with expression vectors for the respective PPAR chimera along with a reporter construct containing five copies of the GAL4 DNA binding site driving expression of secreted placental alkalin phosphatase (SPAP) and beta-galactosidase. After 16 h, the medium was exchanged to DME medium supplemented with 10% delipidated fetal calf serum and th test compound at the appropriate concentration. After an additional 24 h, cell extracts were prepared and assayed for alkaline phosphatase and β-galactosidase activity. […] The positive control in the hPPAR alpha assays was 2-methyl-2-[4-{[(4-methyl-2-[4-trifluoromethylphenyl]-thiazol-5-yl-carbonyl)amino]methyl}-phenoxy]propionic acid. […]

hPPAR α = molecular target: T2, hPPAR α (Homo sapiens, UniProt Q07869); assay: Transient transfection (transactivation) assay in CV-1 cells, hPPAR alpha
T2 construct: expressed in transfected cells; host or cells: CV-1 cells
T2 sequence (Q07869 239-466 limits assumed): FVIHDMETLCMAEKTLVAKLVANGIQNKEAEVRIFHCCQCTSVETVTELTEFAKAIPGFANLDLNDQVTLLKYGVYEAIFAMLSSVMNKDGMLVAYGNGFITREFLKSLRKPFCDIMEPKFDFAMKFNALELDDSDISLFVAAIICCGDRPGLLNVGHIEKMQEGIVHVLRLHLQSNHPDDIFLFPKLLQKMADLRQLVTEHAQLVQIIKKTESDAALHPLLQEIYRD
Source text: as §1

hPPAR γ = molecular target: T3, hPPAR γ (Homo sapiens, UniProt P37231); assay: Transient transfection (transactivation) assay in CV-1 cells, hPPAR gamma
T3 construct: expressed in transfected cells; host or cells: CV-1 cells
Source text: as §1

## Cc1cc(SCc2sc(-c3ccc(C(F)(F)F)cc3F)nc2C)ccc1OC(C)(C)C(=O)O [Example 1, 2-{4-[({2-[2-fluoro-4-(trifluoromethyl)phenyl]-4-methyl-1,3-thiazol-5-yl}methyl)sulfanyl]-2-methylphenoxy}-2-methylpropanoic acid]
hPPAR δ
  EC50: 2.5 nM
hPPAR α
  EC50: 43 nM
hPPAR γ
  EC50: 57 nM
